# Screen size: about 360,000 compounds; about 3,700 (1%) were called active. The source calls these results inconclusive, neither active nor inactive.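 Rule for the calls: active = normalized GFP-positive differentiation at or above the plate's own cutoff, the solvent-only control mean plus 3 SD; inconclusive = no clear call, values can overlap the other calls; inactive = the rest.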
# Assay: induction of myeloid progenitor differentiation, primary screen, cell-based, flow cytometry, MLPCN library (AID 624256)
# Settings: ER-HoxA9 myeloid progenitors, lysozyme-GFP differentiation, at 10 µM
row,Structure (SMILES),outcome
1,CN(C)C(=O)c1cc([N+](=O)[O-])cc2c1-c1c(cc([N+](=O)[O-])cc1[N+](=O)[O-])C2=O,inconclusive
2,O=c1c2cc([N+](=O)[O-])ccc2[nH]c2c([N+](=O)[O-])cc([N+](=O)[O-])cc12,inconclusive
3,N#C/C(=C\c1ccc(N(CCBr)CCBr)cc1)C(N)=O,inconclusive
4,CCc1nc2c(n1)c1c(non1O)c1c2no[n+]1[O-],inconclusive
